{
  "sequences": {"note": "Sequences of proteins named here, by UniProt entry; tags and fusion partners are left off. A change or cut given only in a name is not applied to a line headed by its entry. Residues count along the entry.", "UniProt A0A286XTF2, 1-366": "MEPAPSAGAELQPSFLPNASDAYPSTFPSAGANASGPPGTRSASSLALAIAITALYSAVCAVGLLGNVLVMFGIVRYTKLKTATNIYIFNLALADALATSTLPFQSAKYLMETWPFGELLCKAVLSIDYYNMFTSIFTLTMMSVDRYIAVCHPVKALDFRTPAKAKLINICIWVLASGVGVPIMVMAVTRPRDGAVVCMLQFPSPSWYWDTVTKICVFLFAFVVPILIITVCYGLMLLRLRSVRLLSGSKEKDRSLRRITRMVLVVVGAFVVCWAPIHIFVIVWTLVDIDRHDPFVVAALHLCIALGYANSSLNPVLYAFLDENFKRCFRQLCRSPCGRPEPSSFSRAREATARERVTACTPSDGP"},
  "source": "patent US6780891B2",
  "about": "“Tramadol analogs and uses thereof” (Sepracor Inc., priority 2001, dated 2004)",
  "target": "T1, δ receptor (Cavia porcellus, UniProt A0A286XTF2)",
  "T1 construct": "Following incubation, the membranes were rapidly filtered under vacuum through glass fiber filters; from tissue",
  "assay": "δ opioid receptor binding, [3H]DPDPE",
  "settings": "read-out: IC50, opioid binding, δ; guinea-pig cerebral cortex, [3H]DPDPE 1.5 nM, 120 minutes/22° C.",
  "note": "Where “and” joins values, the source holds several entries; their conditions need not be identical. Equal values may be shown once.",
  "data": [
    {"substance": "DPDPE", "values": [
      {"measurement": "IC50", "value": "3.2 nM and 4.5 nM"}
    ]}
  ]
}
